molecular target: Envelope glycoprotein gp160 (Human immunodeficiency virus type 1 group M subtype B (isolate YU-2)(HIV-1), UniProt P35961); experiment: Binding affinity to HIV1 YU2 gp120 by isothermal titration calorimetry assay; parameters: species or system Human immunodeficiency virus type 1 (isolate YU2)
Summary of the method: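 ITC at 25 °C. Cell held gp120 at about 2 μM in PBS pH 7.4 with 2% DMSO. Heat per injection taken from the integrated signal. Kd from a single run unless noted otherwise.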

| SMILES | Kd [nM] |
| --- | --- |
| CCN1CCC(CNC(=O)C(=O)Nc2ccc(Cl)c(F)c2)CC1 | 3400 |
| CC1(C)CC(NC(=O)C(=O)Nc2ccc(Cl)c(F)c2)CC(C)(C)[N+]1(C)[O-] (centres undefined) | 1300 |
| O=C(NCC1CCN(C2CC2)C1)C(=O)Nc1ccc(Cl)c(F)c1 (centres undefined) | 1700 |
| O=C(Nc1ccc(Cl)c(F)c1)C(=O)NC1CCN(C2CCCCC2)C1 (centres undefined) | 2400 |
